Only a part is listed here, and it is no random draw. Records with an inconclusive call do not appear. Activity calls are given as the source filed them. Unless noted, calls follow the shape of the dose curve; as a rule, active = well fitted cell-killing curve with a large enough effect; inconclusive = small, poorly fitted or top-dose-only effect; inactive = flat fitted curve, though single readings scatter.
Tests used:
[1] = qHTS Assay for Lipid Storage Modulators (AID 1519; calls by dose curve; also: % is scaled to controls: 0 for no effect and ±100 for the full control effect); conditions: Drosophila S3 cells, BODIPY lipid droplet/cell ratio, laser cytometry, cells loaded with oleic acid; at 57.5 µM (top of the series)
[2] = Cell Viability - LYMP2-014 (AID 983); conditions: LYMP2-014 lymphoblastoid cells, viability qHTS; at 92.2 µM (top of the series);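 also: cells exposed to compound for 24 h at 37 °C; plate controls were DMSO only for no effect and 92 µM tetraoctylammonium bromide for full effect; nearly all actives have a fitted effect of over 50% in size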
In short: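 LYMP2-014 human lymphoblastoid cells, 2500/well, treated 24 h at 37 C in complete medium; viability by CellTiter-Glo ATP luminescence after 30 min at room temperature. AC50 from Hill fits of qHTS concentration-response; tetraoctylammonium bromide positive control.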

[3] = Cell Viability - LYMP2-016 (AID 984); conditions: LYMP2-016 lymphoblastoid cell viability, qHTS; at 92.2 µM (top of the series); also: % is scaled to controls: 0 for no effect and ±100 for the full control effect; nearly all actives have a fitted effect of over 55% in size
In short: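 Acute toxicity in a Coriell human lymphoblastoid line is scored as loss of intracellular ATP over 24 h of treatment in complete medium. CellTiter-Glo signal is fitted across concentrations with the Hill equation to give AC50.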

[4] = Cell Viability - LYMP2-018 (AID 985); conditions: LYMP2-018 lymphoblastoid cells, viability (qHTS); at 92.2 µM (top of the series);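 also: compound exposure lasted 24 hr at 37 °C; plate controls were DMSO only for no effect and tetraoctylammonium bromide at 92 µM for full effect; nearly all actives have a fitted effect of over 50% in size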
From the text: (§1) NIH Chemical Genomics Center [NCGC]
(§2) NIH Molecular Libraries Screening Centers Network [MLSCN]
(§3) National Institutes of Environmental Health Sciences [NIEHS]
(§4) National Toxicology Program [NTP]
(§5) We have developed a 1536-well cell-based assay for quantitative high throughput screening (qHTS) against a number of cell lines to determine in vitro cytotoxicity of small molecules. This particular assay uses a human lymphoblastoid cell line (LYMP2-018) purchased from Coriell Institute for Medical Research.
(§6) NCGC Assay Protocol Summary:
(§7) The CellTiter-Glo luminescent cell viability assay (Promega) is a homogeneous method to measure the number of viable cells in culture. The end point readout of this assay is based on quantitation of intracellular ATP, an indicator of metabolic activity, using the luciferase reaction. […]
(§8) Using the CellTiter-Glo luminescent cell viability assay, the amount of cellular ATP was measured in the lymphoblastoid cell line with complete culture medium following compound treatment for 24 hours. […] Library compounds were measured for their ability to cause acute toxicity in the cell line, as reflected by a decrease in intracellular ATP levels, in a concentration-dependent manner. […] AC50 values were determined from concentration-response data modeled with the standard Hill equation. […]
(§9) 8. Detection; Luminescence; Viewlux plate reader […]

[5] = Cell Viability - LYMP2-020 (AID 986); conditions: LYMP2-020 lymphoma cell viability, qHTS; at 92.2 µM (top of the series);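 also: cells exposed to compound for 24 h at 37 °C; plate controls were DMSO only for no effect and tetraoctylammonium bromide at 92 µM for full effect; nearly all actives have a fitted effect of over 55% in size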
In short: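 Human lymphoblastoid LYMP2-020 cells (2500/well) preincubated 5 h at 37 C, then treated 24 h at 37 C. Viability measured as intracellular ATP by CellTiter-Glo luminescence after 30 min at room temperature; AC50 from Hill fits.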

[6] = Cell Viability - LYMP2-022 (AID 987); conditions: LYMP2-022 lymphoblastoid cell viability; at 92.2 µM (top of the series);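 also: 0% = DMSO alone and full effect = tetraoctylammonium bromide at 92 µM; nearly all actives have a fitted effect of over 55% in size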
In short: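 LYMP2-022 lymphoblastoid cells (2500/well, complete medium) were treated with compounds for 24 hours at 37 C; intracellular ATP was then read by CellTiter-Glo luminescence after 30 min at room temperature. AC50 values were derived from Hill-equation fits.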

[7] = Cell Viability - LYMP2-024 (AID 988); conditions: LYMP2-024 lymphoblastoid cell viability; at 92.2 µM (top of the series);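 also: plate controls were DMSO only for no effect and 92 µM tetraoctylammonium bromide for full effect; nearly all actives have a fitted effect of over 60% in size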
In short: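 Human lymphoblastoid LYMP2-024 cells (2500/well) rested 5 hr, then treated with compound for 24 hr at 37 C in complete medium. Viability was measured as intracellular ATP by CellTiter-Glo luminescence. AC50 values came from Hill-equation fits.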

[8] = Cell Viability - LYMP2-026 (AID 989); conditions: LYMP2-026 lymphoblastoid cell viability, qHTS; at 92.2 µM (top of the series);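 also: cells exposed to compound for 24 h at 37 °C; % is scaled to controls: 0 for no effect and ±100 for the full control effect; nearly all actives have a fitted effect of over 50% in size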
From the text: as §1, §2, §3, §4
as §5, with “(LYMP2-026)” for “(LYMP2-018)”
as §6, §7, §8, §9

[9] = Cell Viability - LYMP1-002 - Assay at 24 hr (AID 993); conditions: LYMP1-002 lymphoblastoid cells viability; at 92.2 µM (top of the series); also: % is scaled to controls: 0 for no effect and ±100 for the full control effect
From the text: as §1, §2, §3, §4
as §5, with “(LYMP1-002)” for “(LYMP2-018)”
as §6, §7, §8, §9

[10] = Cell Viability - LYMP1-002 - Assay at 40 hr (AID 994); conditions: LYMP1-002 lymphoblastoid cell viability; at 92.2 µM (top of the series);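 also: 0% = DMSO only and full inhibition = 92 µM tetraoctylammonium bromide; nearly all actives have a fitted effect of over 60% in size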
In short: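 LYMP1-002 human lymphoblastoid cells (2500/well, complete medium) were treated with compounds for 40 hr at 37 C. Intracellular ATP was measured by CellTiter-Glo luminescence, and AC50 values came from Hill-equation fits of concentration-response data; tetraoctylammonium bromide was the positive control.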

CN(CCCl)CCCl
inactive: activity change, negative = inhibition [1] -7.02%

O=[N+]([O-])C(Cl)(Cl)Cl
inactive: activity change, negative = cytotoxicity [2] -0.5% | activity change, negative = cytotoxicity [3] -6.63% | activity change, negative = cytotoxicity [4] -2.8% | activity change, negative = viability loss [5] 2.78% | viability change, negative = cytotoxic [6] -1.41% | activity change, negative = cytotoxicity [7] -16.9% | activity change, negative = cytotoxic [8] 5.97% | activity change, negative = cytotoxicity [9] -8.21% | viability change, negative = cytotoxic [10] -5.26%
